Measured values published in US8846104B2, “Pharmaceutical compositions for the deterrence and/or prevention of abuse” (priority 2006, dated 2014).

Details: in comparison to a 15 mg dose of hydrocodone

CN1CC[C@]23c4c5ccc(O)c4O[C@H]2C(=O)CC[C@H]3[C@H]1C5 [Hydromorphone]
Equianalgesic Calculated Dose: 3.375 mg
